Tested on: RBCs
Details: 3 h at 37° C. incubation with 5 μM and 50 μM mercuric ion
Text: Mercury is a toxic heavy metal that binds to RBC membranes with high affinity and results in RBC hemolysis. Mercuric ions induce membrane conformational changes and impair RBC deformability.

## mercuric ion
  RBC morphology by scanning electron microscopy: underwent morphology changes and turned into echinocytes

Source: patent US20250099952A1, “MICROFLUIDIC DEVICE AND USES THEREOF” (CASE WESTERN RESERVE UNIVERSITY, priority 2019, published 2025)
